This test concerns the target Human immunodeficiency virus type 1 reverse transcriptase (Human immunodeficiency virus 1, UniProt Q72547). Put plainly: Inhibition of recombinant wild type HIV1 reverse transcriptase using DIG-labeled dUTP/biotin-labeled dUTP and dTTP as template and viral nucleotides assessed as decrease in biotin-dUTP incorporation after 1 hr by ELISA. (In general: In an ELISA, binding on a coated surface is turned into a signal by an enzyme label.)

What is called IC50 is the concentration that gives 50% inhibition.

`Cc1cc(C#N)cc(C)c1Oc1nc(Nc2ccc(C#N)cc2)nc(N)c1Br` [ETRAVIRINE]: the IC50 is 1000 nM.

These data come from ChEMBL document CHEMBL4130567, “Discovery of Thiophene[3,2-d]pyrimidine Derivatives as Potent HIV-1 NNRTIs Targeting the Tolerant Region I of NNIBP” (ACS Med Chem Lett, 2017).
